Data taken from article PMC2852246 (Journal of nuclear medicine : official publication, Society …, 2010).

Experiment: Reversed-phase HPLC analysis of 30-min urine sample for metabolism
Format: in vivo, human
Conditions: 30-min urine sample of one volunteer, single peak

## ^99mTc(CO)3-nitrilotriacetic acid [^99mTc(CO)3(NTA)]
  metabolism / form excreted in urine: excreted unchanged in the urine
